Values of other authors as cited in patent US9822414B2, “In vitro method for predicting in vivo genotoxicity of chemical compounds” (priority 2011, dated 2017).

Test system: Salmonella typhimurium
Details: cited from earlier work

O=C(O)Cc1ccccc1Nc1c(Cl)cccc1Cl [Diclo]
Ames: −
